# Laboratory results reported in patent US20230416237A1, “AMIDE COMPOUND, PHARMACEUTICAL COMPOSITION AND USE THEREOF” (SHENZHEN BO LI JIAN MEDICINE CO., LTD., priority 2020, published 2023).
# Protein sequences, listed by entry. Tags and fused reporters are not part of them. Residues count along the entry.
# UniProt O60674, 826-1132: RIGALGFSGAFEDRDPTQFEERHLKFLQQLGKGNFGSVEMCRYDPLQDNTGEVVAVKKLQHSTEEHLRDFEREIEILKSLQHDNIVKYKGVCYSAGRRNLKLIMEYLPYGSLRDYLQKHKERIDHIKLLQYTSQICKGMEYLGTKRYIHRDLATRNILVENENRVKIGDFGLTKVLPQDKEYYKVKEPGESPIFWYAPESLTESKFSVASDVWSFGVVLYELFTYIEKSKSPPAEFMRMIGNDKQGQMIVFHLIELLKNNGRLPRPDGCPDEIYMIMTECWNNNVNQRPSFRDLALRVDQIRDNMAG
# Target: JAK2 (Homo sapiens (Human), UniProt O60674)
# Experiment: JAK2 inhibitory activity, mobility shift assay, 1 mM ATP
# Format: biochemical
# Conditions: Table 7
# Protocol: The JAK1 inhibitory activity and the JAK2 inhibitory activity of the amide compounds provided in the above examples were tested by the method below.
# Specific steps are described below. • 1. A 1× Kinase buffer was formulated. • 2. Concentration gradients of the compound were formulated: a test compound with an initial concentration of 10000 nM (JAK1) or 30000 nM (JAK2) was diluted in a 384-well plate to a 100% DMSO solution with a 100-fold final concentration, wherein the compound was diluted by a fold of 3 to 10 concentrations. 250 nL of the compound with the 100-fold final concentration was transferred with a dispenser Echo 550 to the target plate. • 3. A kinase solution with a 2.5-fold final concentration was prepared with the 1× Kinase buffer. • 4. […] The plate was centrifuged at 1000 rpm for 30 s, shaken and uniformly mixed, and incubated for 10 min at room temperature. • 6. A mixed solution of ATP (the final concentration of ATP=1 mM) and Kinase substrate with a 5/3-fold final concentration was formulated with the 1× Kinase buffer. • 7. 15 μL of the mixed solution of ATP and the substrate with the 5/3-fold final concentration was added to initiate the reaction. • 8. […] The conversion rate was read with Caliper EZ Reader and the half maximal inhibitory concentration (IC50) was calculated.
smiles,measurement,value
"CCS(=O)(=O)N1CC(CC#N)(n2cc(-c3ncnc4[nH]ccc34)cn2)C1 [baricitinib, reference compound]",IC50,9 nM
